Assay results as given in PubChem BioAssay AID651812 (National Center for Advancing Translational Sciences (NCATS), 2012).
Only a part is listed here, and it is no random draw. Results filed as inconclusive are left out. Calls of active or inactive are those of the source. Calls come from the whole dose curve; as a rule, active = well fitted inhibition curve with a large enough effect; inconclusive = small, poorly fitted or top-dose-only effect; inactive = flat fitted curve, though single readings scatter.

Assay: qHTS for inhibitors of Vif-A3G interactions: Cherry picks; note: nearly all actives have a fitted effect of over 80% in size
Conditions: HeLa A3G-eYFP + Vif (tagged APOBEC3G with the HIV-1 protein that degrades it), eYFP fluorescence increase, 24 h
From the text: The recent discovery and characterization of host restriction factors, which provide a potent defense to invading retroviruses, has provided new targets for antiviral drug development. APOBEC3G (A3G) and APOBEC3F (A3F) are potent cytidine deaminases that block HIV-1 replication; HIV-1 expresses the Vif protein, which counteracts A3G and A3F by binding to them and inducing their proteasomal degradation. The Vif-A3G and Vif-A3F interactions provide two potential targets for development of small molecules which can interfere with the ability of Vif to degrade A3G or A3F. […] To identify inhibitors that can interfere with Vif mediated degradation of A3G and A3F, we have developed Hela cell lines that stably express A3G or A3F tagged with eYFP at the C-terminal end (A3G-eYFP or A3F-eYFP, respectively) and Vif. In the absence of an inhibitor, Vif induces degradation of A3G-eYFP and A3F-eYFP, and the cells are not fluorescent. In the presence of an inhibitor, it is expected that Vif will be unable to degrade A3G-eYFP and/or A3F-eYFP, resulting in an increase in yellow fluorescence. […]
A3G-Vif cells were harvested from T225 flask and resuspended in phenol free OPTI-MEM medium with 5% FBS. […] After that, the plates were measured on Acumen Explorer (TTP Lab Tech). The fluorescence was detected by 488 nm/Ex and […].
Potency is the fitted concentration of half-maximal effect.

SMILES | Potency
CC[n+]1c(/C=C/N(C)c2ccccc2)oc2ccccc21 | active: 13 µM
